# Measured values taken from EP4837569A1, “COMPOSITION AND METHOD FOR REDUCING BRAIN DAMAGE, DISABILITY, AND/OR DEATH BY COMBINED THERAPY WITH TETRAFLUOROBENZYL DERIVATIVE AND HYPOTHERMIA” (dated 2026).
# Legend:
# [1] = test system: porcine model of cardiac arrest treated with hypothermia; conditions: cited from earlier work
# [2] = test system: OHCA patients who successfully resuscitated and received TTM treatment; conditions: 110 OHCA patients receiving TTM treatment, cited from earlier work
# [3] = test system: resuscitated cardiac arrest patients receiving hypothermia treatment; assay: Phase 2 (AWAKE) trial: Cerebral Performance Category (CPC); conditions: for Common Odds Ratio (95% C.I.) of the shift in the distribution of CPC scores / patients with CPC 1 / patients with CPC 2 / patients with CPC 3 / patients with CPC 4 / patients with CPC 5 / proportion of patients who completely recovered to CPC 1 / proportion of patients with CPC 5 who died: day 90 after the first drug administration; for increase of proportion of patients with CPC 1-2 versus placebo group / proportion of patients with the CPC 1-2 (Good Outcome) / proportion of patients with the CPC 4-5 (Poor Outcome): day 90 after drug administration
# Experimental: (§1) The Phase 2 study (AWAKE) was conducted in patients with severe or comatose cardiac arrest who returned to spontaneous circulation and arrived at the emergency department within 4 hours and received therapeutic hypothermia (TTM). This study was conducted to investigate the efficacy and safety of nelonemdaz administered intravenously to subjects for 3 days. A total of 105 patients aged 19 to 80 years were enrolled in the AWAKE trial and were randomly assigned in a double-blind fashion to one of three groups to receive intravenous administration of the test drug. The placebo group received 250 ml of 0.9% saline intravenously six times over three days at 12-hour intervals. The low-dose group received a total of 3,250 mg of nelonemdaz (750 mg for the first dose, then 500 mg every 12 hours for the second to sixth doses). The high-dose group received a total of 5,250 mg of nelonemdaz (1,500 mg for the first dose, then 750 mg every 12 hours for the second to sixth doses). Among patients with cardiac arrest outside the hospital, those whose spontaneous circulation resumed for more than 20 minutes and who received hypothermia treatment at 32-34°C for 24 hours upon arrival at the hospital were enrolled. Patients were administered the test drug within 4 hours after spontaneous circulation resumed. Neurological outcomes were analyzed using the modified Rankin Scale (mRS) and brain performance category (CPC) analysis at 90 days after the first dose for patients in a severe or coma state before administration of the test drug, and the degree of brain white matter damage was evaluated using diffusion tensor MRI (DTI) images on the 4th or 5th day after the first dose.
# The Cerebral Performance Category (CPC) is used as a scale to analyze neurological outcomes after cardiac arrest, with a score ranging from 0 (normal) to 5 (dead).
# Meanwhile, using the Cerebral Performance Category (CPC; 1 = Normal, 2 = Moderate Impairment, 3 = Severe Impairment, 4 = Coma, 5 = Death), the effect of nelonemdaz was analyzed in cardiac arrest patients with severe impairment or coma who had successfully resuscitated and were receiving hypothermia treatment.
# [4] = test system: resuscitated cardiac arrest patients receiving hypothermia treatment; assay: Phase 2 (AWAKE) trial: modified Rankin Scale (mRS); conditions: for Common Odds Ratio (95% C.I.) of shift in the distribution of mRS scores / patients with mRS 0 / patients with mRS 1 / patients with mRS 2 / patients with mRS 3 / patients with mRS 4 / patients with mRS 5 / patients with mRS 6 / proportion of patients with an mRS of 0: day 90 after the first drug administration; for proportion of subjects with an mRS of 5-6 (poor neurological outcome: severe coma or death) / proportion of subjects with an mRS of 0-2 (good neurological outcome) / decrease of proportion of subjects with mRS 5-6 versus placebo group / increase of proportion of subjects with mRS 0-2 versus placebo group: day 90 after drug administration
# Experimental: as §1
# The Modified Rankin Scale is an analytical method widely used in clinical trials to assess the degree of disability in patients with stroke and cardiac arrest.
# The disability improvement efficacy of nelonemdaz was analyzed using the modified Rankin Scale (mRS) in cardiac arrest patients resuscitated and receiving TTM treatment. On day 90 after the first drug administration, the proportion of patients with an mRS of 0 (normal) in the placebo group was 37.04%, while the proportion of patients with an mRS of 0 in the low-dose and high-dose nelonemdaz groups increased to 48.15% and 55.56%, respectively.
# [5] = test system: brain white matter of resuscitated cardiac arrest patients receiving hypothermia treatment; assay: Phase 2 (AWAKE) trial: diffusion tensor MRI (DTI), fractional anisotropy of brain white matter; conditions: for Fractional anisotropy (FA), Whole brain white matter, Median (interquartile range): day 5 after the first drug administration, listed as nelonemdaz
# Experimental: as §1, with “Among patients with cardiac arrest outside the hospital, those whose spontaneous circulation resumed for more than 20 minutes and who received hypothermia treatment at 32-34°C for 24 hours upon arrival at the hospital were enrolled. Patients were administered the test drug within 4 hours after spontaneous circulation resumed.” left out
# In brain white matter, the diffusion of water molecules moves in a direction parallel to the direction of nerve fiber bundles. […] The protective effect of nelonemdaz on brain white matter was analyzed by comparing whole-brain and region-specific anisotropy values obtained from brain DTI images of resuscitated cardiac arrest patients who received nelonemdaz with those of a placebo group. […]
# To analyze FA values in the whole brain tissue, preprocessing such as image and motion noise removal and skull removal was performed to extract diffusion parameters, and FA values corresponding to the whole brain tissue were calculated. […]
# [6] = test system: cardiac arrest patients who received hypothermia treatment after successful resuscitation; assay: Phase 2 (AWAKE) trial: safety, serious adverse events; conditions: for Frequency of medication-related serious adverse events / Frequency of serious adverse events: i.v. over 3 days; for unusual side effects, including schizophrenia symptoms: compared to placebo
# Experimental: as §1
# Unexpected adverse effects, such as symptoms of schizophrenia, have been observed in healthy individuals and ischemic stroke patients treated with NMDA receptor antagonists, which has limited their clinical studies and applications (Hoyte, L. et al., (2004). "The rise and fall of NMDA antagonists for ischemic stroke." Curr Mol Med 4(2): 131-136.). The safety of nelonemdaz, a selective NR2B NMDA receptor antagonist, was investigated in cardiac arrest patients who received hypothermia treatment after successful resuscitation.
# Summary of Serious Adverse Events (AEs) Occurring After Administration of Placebo and nelonemdaz-K in Cardiac Arrest Patients Who Received Hypothermia Treatment After Successful Resuscitation [Table 3]
# [7] = Nelonemdaz K 3.25g (N=27) compared to placebo
# [8] = Nelonemdaz K 5.25g (N=27) compared to placebo
compound,measurement,setting,value
CC12CC3CC(C)(C1)CC(N)(C3)C2,neuroprotective effect,[1],did not demonstrate a neuroprotective effect
xenon,neurological function,[2]; after 6 months,no improvement in neurological function was observed
same,white matter (neural network) damage,[2],significant reduction
O=C(O)c1cc(NCc2c(F)c(F)c(C(F)(F)F)c(F)c2F)ccc1O,Common Odds Ratio (95% C.I.) of the shift in the distribution of CPC scores,[3]; [7],2.13 (0.75-6.03)
same,patients with CPC 1,[3]; Nelonemdaz K 3.25g (N=27),15 (55.56%) N (%)
same,patients with CPC 2,[3]; Nelonemdaz K 3.25g (N=27),0 (0.00%) N (%)
same,patients with CPC 3,[3]; Nelonemdaz K 3.25g (N=27),2 (7.41%) N (%)
same,patients with CPC 4,[3]; Nelonemdaz K 3.25g (N=27),2 (7.41%) N (%)
same,patients with CPC 5,[3]; Nelonemdaz K 3.25g (N=27),8 (29.63%) N (%)
same,Common Odds Ratio (95% C.I.) of the shift in the distribution of CPC scores,[3]; [8],2.22 (0.78-6.30)
same,patients with CPC 1,[3]; Nelonemdaz K 5.25g (N=27),16 (59.26%) N (%)
same,patients with CPC 2,[3]; Nelonemdaz K 5.25g (N=27),1 (3.70%) N (%)
same,patients with CPC 3,[3]; Nelonemdaz K 5.25g (N=27),0 (0.00%) N (%)
same,patients with CPC 4,[3]; Nelonemdaz K 5.25g (N=27),1 (3.70%) N (%)
same,patients with CPC 5,[3]; Nelonemdaz K 5.25g (N=27),9 (33.33%) N (%)
same,increase of proportion of patients with CPC 1-2 versus placebo group,[3]; high-dose group,1.55 fold
same,proportion of patients with the CPC 1-2 (Good Outcome),[3]; high-dose group,62.96%
same,proportion of patients with the CPC 4-5 (Poor Outcome),[3]; high-dose group,37.04%
same,proportion of patients who completely recovered to CPC 1,[3]; high-dose group,59.26%
same,proportion of patients with CPC 5 who died,[3]; high-dose group,33.33%
same,increase of proportion of patients with CPC 1-2 versus placebo group,[3]; low-dose group,1.36 fold
same,proportion of patients with the CPC 1-2 (Good Outcome),[3]; low-dose group,55.55%
same,proportion of patients with the CPC 4-5 (Poor Outcome),[3]; low-dose group,37.04%
same,proportion of patients who completely recovered to CPC 1,[3]; low-dose group,55.56%
same,proportion of patients with CPC 5 who died,[3]; low-dose group,29.63%
same,Common Odds Ratio (95% C.I.) of shift in the distribution of mRS scores,[4]; [7],"1.975 (0.714, 5.461)"
same,patients with mRS 0,[4]; Nelonemdaz K 3.25g (N=27),13 (48.15%) N (%)
same,patients with mRS 1,[4]; Nelonemdaz K 3.25g (N=27),2 (7.41%) N (%)
same,patients with mRS 2,[4]; Nelonemdaz K 3.25g (N=27),0 (0.00%) N (%)
same,patients with mRS 3,[4]; Nelonemdaz K 3.25g (N=27),1 (3.70%) N (%)
same,patients with mRS 4,[4]; Nelonemdaz K 3.25g (N=27),0 (0.00%) N (%)
same,patients with mRS 5,[4]; Nelonemdaz K 3.25g (N=27),3 (11.11%) N (%)
same,patients with mRS 6,[4]; Nelonemdaz K 3.25g (N=27),8 (29.63%) N (%)
same,Common Odds Ratio (95% C.I.) of shift in the distribution of mRS scores,[4]; [8],"2.243 (0.806, 6.242)"
same,patients with mRS 0,[4]; Nelonemdaz K 5.25g (N=27),15 (55.56%) N (%)
same,patients with mRS 1,[4]; Nelonemdaz K 5.25g (N=27),1 (3.70%) N (%)
same,patients with mRS 2,[4]; Nelonemdaz K 5.25g (N=27),1 (3.70%) N (%)
same,patients with mRS 3,[4]; Nelonemdaz K 5.25g (N=27),0 (0.00%) N (%)
same,patients with mRS 4,[4]; Nelonemdaz K 5.25g (N=27),0 (0.00%) N (%)
same,patients with mRS 5,[4]; Nelonemdaz K 5.25g (N=27),1 (3.70%) N (%)
same,patients with mRS 6,[4]; Nelonemdaz K 5.25g (N=27),9 (33.33%) N (%)
same,proportion of subjects with an mRS of 5-6 (poor neurological outcome: severe coma or death),[4]; high-dose group (10/27),37%
same,proportion of subjects with an mRS of 0-2 (good neurological outcome),[4]; high-dose group (17/27),62.96%
same,decrease of proportion of subjects with mRS 5-6 versus placebo group,[4]; high-dose group,1.38 fold
same,increase of proportion of subjects with mRS 0-2 versus placebo group,[4]; high-dose group,1.55 fold
same,proportion of patients with an mRS of 0,[4]; high-dose group,55.56%
same,proportion of subjects with an mRS of 5-6 (poor neurological outcome: severe coma or death),[4]; low-dose group (11/27),40.74%
same,proportion of subjects with an mRS of 0-2 (good neurological outcome),[4]; low-dose group (15/27),55.56%
same,decrease of proportion of subjects with mRS 5-6 versus placebo group,[4]; low-dose group,1.31 fold
same,increase of proportion of subjects with mRS 0-2 versus placebo group,[4]; low-dose group,1.375 fold
same,proportion of patients with an mRS of 0,[4]; low-dose group,48.15%
same,"Fractional anisotropy (FA), Whole brain white matter, Median (interquartile range)",[5]; HIGH dose (n=18),0.465 (0.449-0.485)
same,"Fractional anisotropy (FA), Whole brain white matter, Median (interquartile range)",[5]; LOW dose (n=22),0.462 (0.439-0.480)
same,damage to white matter regions (by regional FA),"[5]; high doses, corpus callosum, superior fronto-occipital fasciculus, fornix, anterior limb of internal capsule, middle and superior cerebellar peduncle, versus placebo",significantly reduced
same,Frequency of medication-related serious adverse events,[6]; Nelonemdaz K 3.25g (N=34),0 (0.00%) Number of patients who experienced the event (% of patients who experienced the event)
same,Frequency of serious adverse events,[6]; Nelonemdaz K 3.25g (N=34),0 (0.00%) Number of patients who experienced the event (% of patients who experienced the event)
same,Frequency of medication-related serious adverse events,[6]; Nelonemdaz K 5.25g (N=37),0 (0.00%) Number of patients who experienced the event (% of patients who experienced the event)
same,Frequency of serious adverse events,[6]; Nelonemdaz K 5.25g (N=37),0 (0.00%) Number of patients who experienced the event (% of patients who experienced the event)
same,"unusual side effects, including schizophrenia symptoms","[6]; high-dose (5,250 mg) group","no unusual side effects, including schizophrenia symptoms, were observed"
same,"unusual side effects, including schizophrenia symptoms","[6]; low-dose (3,250 mg) group","no unusual side effects, including schizophrenia symptoms, were observed"
